From article PMC12163822, “Synthesis and Pharmacological Characterization of a Novel Cannabinoid Receptor 1 Antagonist” (ACS Omega, 2025)

Chains of the proteins cited; added tags and fusions are not shown.
UniProt P47746, whole entry: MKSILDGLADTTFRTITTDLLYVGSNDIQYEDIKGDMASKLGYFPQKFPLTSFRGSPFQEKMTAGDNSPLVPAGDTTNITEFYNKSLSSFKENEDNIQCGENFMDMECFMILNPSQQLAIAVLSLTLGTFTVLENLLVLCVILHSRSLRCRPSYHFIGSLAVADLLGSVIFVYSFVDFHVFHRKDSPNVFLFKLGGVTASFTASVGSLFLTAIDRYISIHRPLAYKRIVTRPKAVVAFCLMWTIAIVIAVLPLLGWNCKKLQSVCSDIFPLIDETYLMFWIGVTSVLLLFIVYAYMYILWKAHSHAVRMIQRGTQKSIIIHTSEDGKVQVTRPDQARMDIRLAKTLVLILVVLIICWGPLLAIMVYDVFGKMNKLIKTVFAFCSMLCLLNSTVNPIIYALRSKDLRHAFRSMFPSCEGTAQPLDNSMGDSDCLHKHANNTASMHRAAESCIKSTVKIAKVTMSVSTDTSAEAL
UniProt P20272, whole entry: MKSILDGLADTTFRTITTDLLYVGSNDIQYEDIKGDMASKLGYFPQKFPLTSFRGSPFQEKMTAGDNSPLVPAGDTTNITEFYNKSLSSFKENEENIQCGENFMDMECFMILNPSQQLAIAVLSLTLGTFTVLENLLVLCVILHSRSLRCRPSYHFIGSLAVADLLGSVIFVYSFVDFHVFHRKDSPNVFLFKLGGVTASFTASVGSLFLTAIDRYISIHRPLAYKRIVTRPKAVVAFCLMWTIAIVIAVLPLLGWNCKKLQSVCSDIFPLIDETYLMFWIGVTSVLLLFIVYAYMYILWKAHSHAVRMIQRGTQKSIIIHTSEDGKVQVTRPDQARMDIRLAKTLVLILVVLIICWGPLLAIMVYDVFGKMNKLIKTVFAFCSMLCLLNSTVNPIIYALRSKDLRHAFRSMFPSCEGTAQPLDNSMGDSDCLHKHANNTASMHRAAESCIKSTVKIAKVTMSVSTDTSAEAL

Experiments:
CB1 receptor [1] = molecular target: T1, CB1 receptor (Mus musculus, UniProt P47746); assay: [3H]CP55,940 receptor autoradiography in mouse brain slices; format: binding, Swiss mice; settings: 3 nM [3H]CP55,940 in the presence of compound 10 µM
T1 construct: fresh frozen sections from brain samples from wild-type; from tissue; host or cells: Swiss mouse brain sections
Procedure: (§1) All brain sections were air-dried for 30 min and later immersed in Coplin jars for preincubation in a buffer containing 50 mM Tris–HCl and 1% of BSA (pH 7.4) for 30 min at room temperature. The objective of this preincubation was to remove endogenous ligands. […] Following incubation, tissue slices were washed with an ice-cold preincubation buffer, dipped in distilled water, and dried overnight. To generate autoradiograms, dry sections were placed in hermetically closed cassettes and exposed to β-radiation-sensitive films for 21 days at 4 °C. To calibrate the optical densities to fmol/mg tissue equivalent, [^3H]-microscales were exposed to the films. To quantify the calibrated films after scanning, Fiji software (Bethesda, […], USA) was used.

CB1 receptor [2] = molecular target: CB1 receptor (Rattus norvegicus, UniProt P20272); assay: [3H]CP55,940 receptor autoradiography in rat brain slices; format: binding, Sprague-Dawley rat; set-up: fresh frozen sections from brain samples from wild-type; from tissue; host or cells: Sprague-Dawley rat brain sections; settings: 3 nM [3H]CP55,940 in the presence of compound 10 µM
Procedure: as §1

[3] = nucleus basalis magnocellularis

SMILES: Cc1c(C(=O)NN2CCCCC2)nn(-c2ccc(Cl)cc2Cl)c1-c1ccc(Cl)cc1.Cl [SR141716A, 5-(4-Chlorophenyl)-1-(2,4-dichlorophenyl)-4-methyl-N-1-piperidinyl-1H-pyrazole-3-carboxamide hydrochloride, reference compound]
- [3H]CP55,940 binding (CB1 receptor [1]; amygdala): 62 ± 37 fmol/mg t.e.
- [3H]CP55,940 binding (CB1 receptor [1]; cerebellum (gray matter)): 118 ± 22 fmol/mg t.e.
- [3H]CP55,940 binding (CB1 receptor [1]; cortex): 65 ± 26 fmol/mg t.e.
- [3H]CP55,940 binding (CB1 receptor [1]; globus pallidus): 75 ± 31 fmol/mg t.e.
- [3H]CP55,940 binding (CB1 receptor [1]; hippocampus dorsal): 69 ± 29 fmol/mg t.e.
- [3H]CP55,940 binding (CB1 receptor [1]; [3]): 82 ± 31 fmol/mg t.e.
- [3H]CP55,940 binding (CB1 receptor [1]; striatum): 73 ± 13 fmol/mg t.e.
- [3H]CP55,940 binding (CB1 receptor [1]; substantia nigra): 106 ± 118 fmol/mg t.e.
- [3H]CP55,940 binding (CB1 receptor [2]; amygdala): 79 ± 18 fmol/mg t.e.
- [3H]CP55,940 binding (CB1 receptor [2]; cerebellum (gray matter)): 72 ± 23 fmol/mg t.e.
- [3H]CP55,940 binding (CB1 receptor [2]; cortex): 66 ± 14 fmol/mg t.e.
- [3H]CP55,940 binding (CB1 receptor [2]; globus pallidus): 77 ± 15 fmol/mg t.e.
- [3H]CP55,940 binding (CB1 receptor [2]; hippocampus dorsal): 62 ± 10 fmol/mg t.e.
- [3H]CP55,940 binding (CB1 receptor [2]; [3]): 80 ± 11 fmol/mg t.e.
- [3H]CP55,940 binding (CB1 receptor [2]; striatum): 79 ± 25 fmol/mg t.e.
- [3H]CP55,940 binding (CB1 receptor [2]; substantia nigra): 70 ± 14 fmol/mg t.e.
